This note sets out measurements from ChEMBL document CHEMBL1126897, “Tyrphostins. 3. Structure-activity relationship studies of alpha-substituted benzylidenemalononitrile 5-S-aryltyrphostins” (J Med Chem, 1993).

Chains of the proteins cited; added tags and fusions are not shown.
UniProt P00533, whole entry: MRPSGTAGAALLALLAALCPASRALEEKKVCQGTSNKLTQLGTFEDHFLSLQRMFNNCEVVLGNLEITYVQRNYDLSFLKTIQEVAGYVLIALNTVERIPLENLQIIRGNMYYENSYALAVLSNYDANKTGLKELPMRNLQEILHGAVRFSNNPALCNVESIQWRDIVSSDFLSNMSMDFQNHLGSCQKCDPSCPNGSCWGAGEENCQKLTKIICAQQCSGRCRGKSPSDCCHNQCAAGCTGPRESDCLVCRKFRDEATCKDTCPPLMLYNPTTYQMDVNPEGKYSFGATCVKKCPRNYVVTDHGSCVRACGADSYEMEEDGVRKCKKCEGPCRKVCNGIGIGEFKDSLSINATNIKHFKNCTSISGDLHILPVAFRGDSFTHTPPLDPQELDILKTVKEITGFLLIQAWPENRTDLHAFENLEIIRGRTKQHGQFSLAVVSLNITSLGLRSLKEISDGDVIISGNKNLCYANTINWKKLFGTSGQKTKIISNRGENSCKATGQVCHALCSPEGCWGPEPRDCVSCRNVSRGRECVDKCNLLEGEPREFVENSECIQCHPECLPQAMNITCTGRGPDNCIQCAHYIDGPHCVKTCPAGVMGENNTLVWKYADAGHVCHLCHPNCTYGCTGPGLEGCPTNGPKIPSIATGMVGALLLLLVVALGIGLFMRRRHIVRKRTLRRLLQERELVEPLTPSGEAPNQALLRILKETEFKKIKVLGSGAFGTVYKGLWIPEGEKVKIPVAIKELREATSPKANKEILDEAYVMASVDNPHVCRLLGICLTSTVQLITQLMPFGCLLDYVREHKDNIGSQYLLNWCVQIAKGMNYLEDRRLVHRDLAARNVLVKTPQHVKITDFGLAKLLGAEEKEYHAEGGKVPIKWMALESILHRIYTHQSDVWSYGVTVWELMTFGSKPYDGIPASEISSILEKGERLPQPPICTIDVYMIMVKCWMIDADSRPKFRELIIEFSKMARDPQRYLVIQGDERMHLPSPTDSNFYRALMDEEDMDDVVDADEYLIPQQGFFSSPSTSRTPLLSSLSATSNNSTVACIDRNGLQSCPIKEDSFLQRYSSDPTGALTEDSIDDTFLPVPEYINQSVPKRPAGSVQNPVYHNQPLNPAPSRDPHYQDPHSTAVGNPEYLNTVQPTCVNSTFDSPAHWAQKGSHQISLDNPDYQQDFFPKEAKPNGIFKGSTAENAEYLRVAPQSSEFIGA

Experiment [1] addresses T1, Epidermal growth factor receptor (Homo sapiens, UniProt P00533).
Experiment [2] addresses T1, Epidermal growth factor receptor. The source holds these as a separate data set.

A word on the IC50: it is the point on the concentration scale where inhibition reaches its midpoint. Higher therefore signals weaker potency in that assay. For the compound `COc1cc(/C=C(\C#N)C(N)=O)cc(CSC2=NCCS2)c1O`, the IC50 was 16.3 µM in experiment [1] and 8.8 µM in experiment [2].
As for `COc1cc(/C=C(\C#N)C(N)=O)cc(CSc2ccc(C)cc2)c1O`, the IC50 in experiment [1] is 8.7 µM; in experiment [2], 1.75 µM.
